Experimental data as given in US11304930B2, “Ammonium salts of 3-(3,5-dibromo-4-hydroxybenzyliden)-5-indo-1,3-dihydroindol-2-one and uses thereof” (Metagone Biotech Inc., priority 2018, dated 2022).

test: Water solubility of GW5074 salts

| SMILES | Solubility [mg/100 mL] |
| --- | --- |
| CNC[C@H](O)[C@@H](O)[C@H](O)[C@H](O)CO.O=C1Nc2ccc(I)cc2C1=Cc1cc(Br)c(O)c(Br)c1 [N-Methylglucamine Salt of GW5075] | 275 |
| O=C1Nc2ccc(I)cc2C1=Cc1cc(Br)c([O-])c(Br)c1.[K+] [Potassium Salts of GW5074, reference compound] | 0.5 |
| O=C1Nc2ccc(I)cc2C1=Cc1cc(Br)c(O)c(Br)c1.c1ccc(CNCCNCc2ccccc2)cc1 [N, N′-Dibenzylethylenediamine Salt of GW5075] | < 0.02 |
| C1CNCCN1.O=C1Nc2ccc(I)cc2C1=Cc1cc(Br)c(O)c(Br)c1 [Piperazine Salt of GW5075] | 0.74 |
| O=C1Nc2ccc(I)cc2C1=Cc1cc(Br)c(O)c(Br)c1.OCCN(CCO)CCO [MG-A3, Triethanolamine Salt of GW5075] | 2.36 |
| O=C1Nc2ccc(I)cc2C1=Cc1cc(Br)c([O-])c(Br)c1.[Na+] [MG-A1, Sodium Salts of GW5074, reference compound] | 0.5 |
| CCNCC.O=C1Nc2ccc(I)cc2C1=Cc1cc(Br)c(O)c(Br)c1 [Diethylamine Salt of GW5075] | 0.12 |
| NC(CO)(CO)CO.O=C1Nc2ccc(I)cc2C1=Cc1cc(Br)c(O)c(Br)c1 [Tris(Hydroxymethyl)Aminomethane Salt of GW5075] | < 0.02 |
